Assay results as given in BindingDB's records for doi:10.1111/j.1600-0773.1996.tb00261.x (Uppsala University, 1996).

The chains behind the UniProt entries cited, without tags or fusion partners.
UniProt P32245, whole entry: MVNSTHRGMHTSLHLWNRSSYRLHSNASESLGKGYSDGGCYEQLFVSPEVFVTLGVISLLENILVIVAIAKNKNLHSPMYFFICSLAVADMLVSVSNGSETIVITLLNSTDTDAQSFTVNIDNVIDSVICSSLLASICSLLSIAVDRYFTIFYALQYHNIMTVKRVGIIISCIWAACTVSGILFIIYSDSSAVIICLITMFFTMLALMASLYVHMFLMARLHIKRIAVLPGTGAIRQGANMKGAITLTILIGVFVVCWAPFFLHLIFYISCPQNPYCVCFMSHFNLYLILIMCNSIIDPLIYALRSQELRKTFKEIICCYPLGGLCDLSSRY

Biological target: Melanocortin receptor 4 (Homo sapiens, UniProt P32245)

Molecule `CC(C)C(O)(C(=O)OCC1=CCN2CCC(O)C12)C(C)O` (stereo not drawn) [beta MSH, human] has a Ki of 0.376 µM.
